Ki data for two compounds are collected here from BindingDB's records for doi:10.1124/jpet.105.087965 (Vrije Universiteit Amsterdam, 2005).

Sequences of proteins named here, by UniProt entry; tags and fusion partners are left off. A change or cut given only in a name is not applied to a line headed by its entry.
UniProt Q9Y5N1: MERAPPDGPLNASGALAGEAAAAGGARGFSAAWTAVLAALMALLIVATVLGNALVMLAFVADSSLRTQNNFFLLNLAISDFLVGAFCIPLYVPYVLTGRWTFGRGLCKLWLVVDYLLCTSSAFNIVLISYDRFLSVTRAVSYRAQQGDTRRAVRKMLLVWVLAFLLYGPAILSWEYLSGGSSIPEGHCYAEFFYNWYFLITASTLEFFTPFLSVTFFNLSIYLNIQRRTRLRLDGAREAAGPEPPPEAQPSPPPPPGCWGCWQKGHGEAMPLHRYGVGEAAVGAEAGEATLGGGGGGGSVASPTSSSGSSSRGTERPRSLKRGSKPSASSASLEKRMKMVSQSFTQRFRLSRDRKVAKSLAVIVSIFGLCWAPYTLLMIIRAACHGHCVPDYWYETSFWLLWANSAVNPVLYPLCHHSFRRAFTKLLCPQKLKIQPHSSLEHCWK

This test has as its target Histamine H3 receptor (Homo sapiens, UniProt Q9Y5N1). Nature of the test: Ligand displacement assays were performed on The SK-N-MC/hH3R cell homogenates. Retained radioactivity was determined by liquid scintillation counting. The Ki values were calculated based on an experimentally determined appropriate Kd value according to Cheng and Prusoff.

As for `NCCCCCc1c[nH]cn1` [5-(1H-imidazol-5-yl)pentan-1-amine], the inhibition constant Ki was 5 nM.

`NC(=NCc1ccc(Cl)cc1)SCCCc1cnc[nH]1` [VUF 9153]: the inhibitory constant (Ki) was 3 nM.

The term Ki denotes a measure of affinity in units of concentration, obtained from inhibition or displacement.
